Reference: patent EP2138174A1, “PHARMACEUTICAL COMPOSITION IN THE FORM OF A SUBLINGUAL TABLET CONSISTING OF A NON-STEROIDAL ANTI-INFLAMMATORY AGENT AND AN OPIATE ANALGESIC FOR PAIN MANAGEMENT” (priority 2007, dated 2008)

How the values were obtained:
[1] = human, in vivo
Procedure: Blood samples were taken up to 24 hours after medicament delivery.
In order to determine whether bioavailability is existent or not between both medicaments, a logarithmic transformation of data was carried out and they were analyzed by means of the statistical package WinNonlinTM.
Confidence ranges proposed by FDA for semilogarithmic data in determining bioequivalency of two products are from 80 to 125%.

stomach = assay: Gastrointestinal side effect measurement (gastric ulcers and erosions, relative to indomethacin); parameters: species or system Female rats from Wistar type; conditions: rat, in vivo
Procedure: Female rats from Wistar type (150-180 g body weight) were subject to fasting 24 hours before experimentation. Indomethacin was supplied (20 mg/kg) to cause gastric ulcer at 100% (Lee et al., 1971 Déciga-Campos et al., 2003); ketorolac (1.0 mg/kg), tramadol (17.8 mg/kg), vehicle (carboxymethylcellolose at 0.5%) and a combination of ketorolac plus tramadol (1.0 and 17.8 mg/kg respectively) was orally delivered simultaneously and to the five groups (six rats each). 2.5 hours later, all the groups received a second administration of the same doses. […] Severity of induced gastric lesions with medicament was calculated as a ratio of number of lesions (stomach ulcer or erosion) caused by provided treatment and the number of lesions caused by indomethacin (100%). This was determined to reflect the side effects induced by medicament. The sum of the area of all the ulcers in the body of each animal was calculated and served as an ulcerative index. Gastric lesion percentage was calculated in the following way: % of gastric lesion = (IUM/IUI) × 100 [formula] wherein IUM is the Medicament Ulcerative Index on test (mm^2) and IUI is the Ulcerative Index for assayed Indomethacin (mm^2).
Synergism between ketorolac and tramadol was calculated with the synergic interaction surface analysis (SIS) and with the isobolographic method (Tallarida et al., 1989). […]

[2] = in vivo; cited from earlier work

Compound: COc1cccc(C2(O)CCCCC2CN(C)C)c1 (stereo not shown) [Tramadol, Tramadol Hydrochloride]
- Ratio (%Ref), Ln (Cmax) [1]: 124.02 %Ref
- Ratio (%Ref), LnAUCINF [1]: 76.38 %Ref
- Gastric lesion ((Index of ulcers in drug tests / Index of ulcers in indomethacin tests) x 100) (stomach): 0%
- Analgesic effect half-life [2]: about 6 hours

Where a name gives a salt, the structure may show the parent alone.
